# Yeast mating assay 2: variants of the scFv Ab-95

Source: Engelhart et al. 2022 (doi:10.1038/s41597-022-01779-4), MIT Lincoln Laboratory and A-Alpha Bio; data file from the FLAb repository.

Target: peptide PDVDLGDISGINAS, taken from heptad repeat 2 (HR2) of SARS-CoV-2 spike.

Parent: Ab-95, a human scFv built as VH, three GGGGS repeats, VL. Only the CDRs of the light chain vary.
VH: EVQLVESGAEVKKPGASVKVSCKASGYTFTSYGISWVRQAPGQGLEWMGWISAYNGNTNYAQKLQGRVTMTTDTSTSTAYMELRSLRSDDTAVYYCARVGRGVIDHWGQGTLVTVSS
VL: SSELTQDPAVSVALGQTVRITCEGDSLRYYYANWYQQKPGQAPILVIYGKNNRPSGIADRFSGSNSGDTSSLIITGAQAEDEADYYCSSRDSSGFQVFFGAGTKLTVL

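Phage display of a naive human antibody library on the peptide gave the parent. Library AAYL52 holds single substitutions and randomly drawn double and triple substitutions in the CDRs. In AlphaSeq, yeast of one mating type display the scFv and yeast of the other type display the target. Mating (16 h, 30 °C) was followed by selection of diploids and sequencing of their barcodes. Read counts were normalised to the haploid input and turned into Kd by a linear fit to BCL2-family pairs of known affinity, for each replicate. Each pool was mated in three replicate cultures.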

Changes read parent residue, position, new residue, counted from the first residue of the VL shown. All variants listed here change Q96 of the VL, counted from its first residue. The read-out is the apparent dissociation constant on a log10 scale (nM): the lower, the stronger. Averages over replicates are reported, and they cover detected replicates only. "nd" means that the variant was in the library but no mating with the target was seen in any replicate; the authors take this as a sign of poor binding, and no number exists. Empty control strains, which show no peptide, gave a signal in 28% of pairings with library AAYL52; the median was 3.91 and 95% of these signals were weaker than 2.90. No background was subtracted. The control count says in how many pairings with the empty strains this scFv gave a signal.

Variant S93T+Q96R+V97W showed 1.86 (3 of 3 replicates; controls 1 of 9). Variant N51P+D91S+Q96I showed 3.89 (1 of 3 replicates; controls 5 of 9). Variant D25R+R28T+Q96C showed nd (0 of 3 replicates; controls 1 of 9). Variant E23F+G24I+Q96V gave 3.43 (3 of 3 replicates; controls 3 of 9). With E23M+G94Q+Q96C the result was 3.07 (3 of 3 replicates; controls 7 of 9). Variant Q96V+F98H showed 2.03 (3 of 3 replicates; controls 1 of 9).

With Y30P+S92A+Q96A the result was 2.11 (3 of 3 replicates; controls 6 of 9). Variant Y30F+Q96A+V97R showed 2.98 (3 of 3 replicates; controls 6 of 9). Variant G49D+S93Y+Q96S showed 2.66 (3 of 3 replicates; controls 1 of 9). For Q96C, the assay gave 2.01 (3 of 3 replicates; controls 3 of 9). Variant R53T+D91G+Q96M gave 5.50 (1 of 3 replicates; controls 2 of 9). For S89Y+S92V+Q96Y, the assay gave 3.47 (1 of 3 replicates; controls 3 of 9).

Variant Q96V+V97N+F98Y gave 2.60 (3 of 3 replicates; controls 3 of 9). For A32G+Q96Y, the assay gave 4.29 (2 of 3 replicates; controls 4 of 9). With G24V+S88T+Q96P the result was 4.68 (1 of 3 replicates; controls 3 of 9). Variant S92T+Q96A showed 3.03 (3 of 3 replicates; controls 2 of 9). With S89W+Q96E+V97W the result was 2.76 (3 of 3 replicates; controls 4 of 9). Variant P54I+S88A+Q96V gave 2.94 (3 of 3 replicates; controls 3 of 9).

Variant S89Y+Q96T showed 2.67 (3 of 3 replicates; controls 6 of 9). For S26A+Y30I+Q96D, the assay gave 3.76 (3 of 3 replicates; controls 1 of 9). Variant G49V+S93Q+Q96M showed nd (0 of 3 replicates; controls 3 of 9). Variant E23M+K50D+Q96T showed 2.60 (3 of 3 replicates; controls 2 of 9). Variant G24A+S92T+Q96K showed 3.11 (3 of 3 replicates; controls 2 of 9). Variant N33R+P54D+Q96W showed 3.30 (1 of 3 replicates; controls 4 of 9).

Variant G49M+R53Y+Q96A showed 4.50 (3 of 3 replicates; controls 2 of 9). Variant N51R+R90D+Q96R gave 3.93 (1 of 3 replicates; controls 5 of 9). Variant Q96M gave 2.14 (3 of 3 replicates; controls 1 of 9). For N51L+Q96C, the assay gave nd (0 of 3 replicates; controls 2 of 9). For N51Q+R53P+Q96D, the assay gave 3.07 (1 of 3 replicates; controls 2 of 9). Variant R53V+S89W+Q96Y showed 4.89 (1 of 3 replicates; controls 2 of 9).

Variant E23L+S92F+Q96H showed 2.93 (2 of 3 replicates; controls 2 of 9). With R53G+R90L+Q96Y the result was 4.57 (2 of 3 replicates; controls 2 of 9).

The opening 4 entries, copied out:

{"changes": "S93T+Q96R+V97W", "log10 Kd (nM), mean": "1.86", "seen in": "3 of 3", "empty controls": "1 of 9"}
{"changes": "N51P+D91S+Q96I", "log10 Kd (nM), mean": "3.89", "seen in": "1 of 3", "empty controls": "5 of 9"}
{"changes": "D25R+R28T+Q96C", "log10 Kd (nM), mean": "nd", "seen in": "0 of 3", "empty controls": "1 of 9"}
{"changes": "E23F+G24I+Q96V", "log10 Kd (nM), mean": "3.43", "seen in": "3 of 3", "empty controls": "3 of 9"}